Experiments:
[1] = rat, in vivo
[2] = rat, in vivo, sc
Procedure: Using normal rats (each 4 rats) which were in the same week old in initiation of administration of elcatonin as in Examples 1 and 2, dose of elcatonin not varying serum calcium value was examed in the case of single subcutaneous administration (administered over 10 seconds). […] Measurement of serum calcium value was conducted using calcium C-test wako (Wako).

[3] = rat, in vivo; remark: listed apart in the source

Substance: 1-butylic acid-7-(L-2-aminobutylic acid)-26-L-aspartic acid-27-L-valine-29-L-alaninecalcitonin [elcatonin]
- change in body weight compared with vehicle administration group [1]: no change in body weight
- dose at which serum calcium value changed [2]: ≥ 150 mU/kg
- body weight increase [3]: suppression of body weight increase became remarkable
